For assay [1], the system named is BPE, HMLER and BPLER cells. Put plainly: Cell cycle distribution (propidium iodide DNA staining). Conditions: 24 hours.
In assay [2] the test system is 4T1-E and HCC-1143 cells. Put plainly: Colony assay and tumorigenicity assay after in vitro treatment. Conditions: 18-hour treatment (12.5 nM), 2 weeks drug-free, orthotopic injection in Balb/c mice.
The test system of assay [3] is BPLER and HMLER cells. Nature of the assay: Mitochondrial membrane depolarization (DilC1(5) staining, flow cytometry). Conditions: 12.5 nM, 18 hours.

For `CC(C)C[C@H](NC(=O)[C@H](Cc1ccccc1)NC(=O)c1cnccn1)B(O)O` [bortezomib], in assay [1], the cell cycle distribution entry was “marked accumulation of cells in G2/M phase”. Besides, the “colony formation and tumor initiation by viable cells persisting after treatment” value in assay [2] is “neither formed colonies in vitro after 2 weeks, nor were able to initiate tumors in vivo”. For the same compound, in assay [3], the mitochondrial membrane depolarization result was “induced mithocondrial membrane depolarization in BPLER but not HMLER”.
